Measured values: patent publication US7378387B2, “Method of suppressing immune response by reducing intracellular content of glutathione in macrophages and monocytes” (Ajinomoto Co., Inc., priority 1997, dated 2008)

What was measured:
Type in all cases: in vivo, DBA/2 female mice
IL-12 = IL-12 production of MΦ after NAC drinking and/or IL-2 administration (Example 8); settings: stimulated with LPS and IFNγ; control mice 0 pg/ml
Method: The amount of IL-12 was determined through bioassay using cells of human T cell strain 2D6 (J. Leukocyte Biology, vol. 61, p. 346, 1997).
2D6 cells which had been incubated in an RPMI 1640 medium containing 500 pg/ml of recombinant human IL-12, 50 μM of 2-mercaptoethanol and 10% FCS (fetal calf serum) were moved to a tube, and centrifugally washed three times with the above-mentioned medium without IL-12 and cell density was adjusted to 1×10^5/ml. The cell suspension was added in an amount of 100 μl each to a 96-well flat bottom plate containing a sample serially diluted in advance with an RPMI 1640 medium containing 50 μM of 2-mercaptoethanol and 10% FCS in an amount of 100 μl each. […] The cells a harvested, and the radioactivity was measured using a β counter (Matrix 96, supplied by Packard).
(§1) Two groups, namely, a group of 8-week-old DBA/2 female mice which were caused to freely drink city water as in Example 6, and a group of the same female mice which were caused to freely drink city water containing 1 mg/ml of NAC, were prepared. […] On day 14, the IL-12 production from MΦ was measured in the same manner as in Example 6.
(§2) Peritoneal cells were harvested from four groups of the mice, and stimulated with LPS and IFNγ. Then, the NO production, the IL-6 production and the IL-12 production were measured. […]

[1] = test system: reductive glutathione in MΦ; experiment: GSH content in MΦ by ACAS after NAC drinking and/or IL-2 administration (Example 8); settings: NAC 1 mg/ml in city water; IL-2 intraperitoneally twice a day every two days for two weeks; day 14
Method: Three-hundred microliters of a cell suspension adjusted concentration of 3×10^5 cells/ml in an RPMI 1640 medium (phenol red-free) were charged into a chambered coverglass (#136439, supplied by Nunc), and incubated at 37° C. for 2 hours using a CO2 incubator. The culture solution was washed with the medium, and 300 μl of monochlorobimane (supplied by Molecular Plobe) adjusted to 10 μM in the same medium were added thereto. The mixture was charged into a CO2 incubator of 37° C., and the reaction was conducted for 30 minutes. The fluorescent intensity was measured with ACAS. In ACAS, a UV laser was used.
Two groups, namely, a group of 8-week-old DBA/2 female mice which were caused to freely drink city water as in Example 6, and a group of the same female mice which were caused to freely drink city water containing 1 mg/ml of NAC, were prepared. Further, the two groups of the-above-mentioned mice to which human recombinant IL-2 in an amount of 2 pg/0.5 ml/h was intraperitoneally administered twice a day, every two days for two weeks were provided. On day 14, the IL-12 production from MΦ was measured in the same manner as in Example 6.
The peritoneal cells were harvested from the mice which had undergone the respective treatments, and the GSH content in cells was analyzed by ACAS using an MCB reagent.

IL-6 = IL-6 production of MΦ after NAC drinking and/or IL-2 administration (Example 8); settings: stimulated with LPS and IFNγ; control mice 1,240 pg/ml
Method: A stimulator was added to 1×10^6 MΦ, and the incubation was conducted at 37° C. for 2 days in a CO2 incubator. After centrifugation, the culture supernatant was collected.
The amount of IL-6 was determined using IL-6 dependent mouse hybridoma MH60 cells (J. Eur. Immunol., vol. 18, p. 951, 1988). One hundred microliters of the culture supernatant were added to 100 μl of the MH60 cell suspension adjusted to 1×10^5 cells/ml in a 10% FCS-containing RPMI medium, and the mixed solution was incubated at 37° C. for 2 days in a CO2 incubator. Subsequently, 10 μl of MTT (supplied by Sigma Co.) solution adjusted to a concentration of 5 mg/ml in the same medium were added thereto, and the reaction was conducted at 37° C. for 5 hours. […] Immediately after the dissolution, an absorbance of 570 nm was measured with an immunometer (supplied by Bio-Rad).
as §1, §2

IL-2: human recombinant IL-2
amount of IL-12 (IL-12): 946 pg/mL
content of reductive glutathione in MΦ (ACAS) [1]: markedly increased
amount of IL-6 in the macrophage culture supernatant (IL-6): 520 pg/mL
